Values quoted from earlier work, collected in patent publication US5807671A (priority 1995, dated 1998).

Test system: "atypical" BuChE
Details: cited from earlier work

CCOP(=O)(OCC)SCC[N+](C)(C)C
IC50, higher for "atypical" than wild-type BuChE ("atypical" vs wild type): at least 10 fold
Ki, higher for "atypical" than wild-type BuChE ("atypical" vs wild type): at least 10 fold
sensitivity of the atypical variant to inhibitors (in contrast to the normal enzyme): much less sensitive
